{"source": "patent US20090252703A1", "about": "“Use of alcohol co-solvents to improve pegylation reaction yields” (priority 2006, published 2009)", "origin": "cited, not measured here", "details": "cited from earlier work", "data": [{"substance": "CGRP: calcitonin gene-related peptide (CGRP), native peptide", "values": [{"measurement": "half-life in mammalian plasma", "result": "about 10 min"}]}]}
